The compounds below were run against T1, RAD51 (Homo sapiens, UniProt Q06609) (assay: Fluorescence polarization-based DNA binding assay (RAD51-ssDNA binding)). Details: Table 2; Stim = stimulator.
T1 sequence (Q06609 1-339): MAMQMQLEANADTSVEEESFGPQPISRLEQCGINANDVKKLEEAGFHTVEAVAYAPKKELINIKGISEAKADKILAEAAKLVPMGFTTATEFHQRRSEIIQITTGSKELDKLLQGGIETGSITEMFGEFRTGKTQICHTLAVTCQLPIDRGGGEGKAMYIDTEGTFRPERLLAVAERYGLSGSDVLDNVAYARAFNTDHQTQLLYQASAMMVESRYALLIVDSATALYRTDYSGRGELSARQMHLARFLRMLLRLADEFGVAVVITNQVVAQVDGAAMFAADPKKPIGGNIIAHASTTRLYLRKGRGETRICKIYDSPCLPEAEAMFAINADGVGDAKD
Format: biochemical
Method: The fluorescence polarization-based DNA binding assay and purification of human RAD51 used for this assay was performed as previously described with a few modifications.^23 Reactions were carried out in black 384-well polystyrene plates. In each well, RAD51 protein was combined with reaction buffer and varying concentrations of compound in DMSO in an initial volume of 40 μl and incubated at 37° C. for 40 minutes. Then, 10 μl of reaction buffer containing fluorescently-labeled ssDNA substrate (5′-Alexa488-oligo-dT45) was added and the reaction incubated at 37° C. for another 40 minutes, after which the plate was read on a Tecan Infinite 200 Pro plate reader equipped with two sets of 485±25 nm/535±35 nm with parallel or perpendicularly-oriented polarization filters. In both steps of the reaction setup, buffer components were maintained at 20 mM HEPES-NaOH (pH 7.5), 2 mM ATP, 10 mM MgCl2, 0.1 mM TCEP-HCl (tris(2-carboxyethyl)phosphine), and 0.25 μM BSA. The final reaction contained 4% DMSO, 0.2 μM RAD51, 30 mM NaCl, 2% glycerol, and 2.22 nM ssDNA substrate. Compound IC50 values were obtained by least-squares regression fitting of appropriate linear, log, or sigmoid dose-response models to the data, with the standard error indicated. […]

IC50 [µM]	Structure (SMILES)
> 100	CCNc1ccc(-c2nc3ccccc3n3cccc23)cc1 [Compound 9h, N-ethyl-4-(pyrrolo[1,2-a]quinoxalin-4-yl)aniline]

The compounds below were run against T1, RAD51 (assay: Gel-based D-loop assay). Details: Table 2.
Format: biochemical
Method: Human RAD51 in reaction buffer was combined with compound in […] DMSO, incubated at 37° C. for 10 min, and then 1 μl of 5′-^32P-labeled 90-mer ssDNA (5′-[…]) with homology to the plasmid pRS306 ^34 was added and the reaction was incubated at 37° C. for an additional 5 minutes. 1 μl of supercoiled pRS306 was then added to the reaction and incubated at 37° C. for 20 minutes; at this point the reaction consisted of 25 mM HEPES-NaOH (pH 7.0), 1 mM ATP, 1 mM MgCl2, 1 mM DTT, 1.5 μM BSA, 4.5% DMSO, 0.5 μM RAD51, 11 mM NaCl, 1% glycerol, 20 nM ssDNA, and 5 nM pRS306. The reactions were de-proteinized with 0.8% SDS and 0.8 mg/ml proteinase K, mixed with gel loading buffer, and run on a 0.9% agarose/1×TAE gel, which was dried and exposed to a phosphor screen overnight and imaged on a Storm 860 PhosphorImager. Compound IC50 values were obtained by least-squares regression fitting of appropriate linear, log, or sigmoid dose-response models to the data, with the standard error indicated.
To improve upon the D-loop inhibitory activity, medicinal chemical studies were undertaken to optimize 8. First, different functional groups were appended to rings A and B as substituents, including alkyl groups of different sizes, electron withdrawing/donating groups, and hydrogen bond donor/acceptor groups. Next, replacement of the phenyl ring B with different heterocycles or other saturated/unsaturated rings was investigated in order to probe its role. For each of the prepared compounds, the gel-based D-loop assay and the microplate-based DNA binding assay were used to characterize the biochemical activities.

D-Loops Max inhibition effect [%]	Structure (SMILES)
42 ± 11	c1ccc2c(-c3nc4ccccc4n4cccc34)cccc2c1 [Compound 11d, 4-(Naphthalen-1-yl)pyrrolo[1,2-a]quinoxaline]
38 ± 3	Oc1ccc(-c2nc3ccccc3n3cccc23)cc1 [Compound 9d]
5 ± 11	C1=C(c2nc3ccccc3n3cccc23)CCCC1 [Compound 11c, 4-(Cyclohex-1-en-1-yl)pyrrolo[1,2-a]quinoxaline]
22 ± 8	FC(F)(F)Oc1ccc(-c2nc3ccccc3n3cccc23)cc1 [Compound 9e, 4-(4-(Trifluoromethoxy)phenyl)pyrrolo[1,2-a]quinoxaline]
79 ± 8	Nc1cccc(-c2nc3ccccc3n3cccc23)c1 [Compound 9c, 3-(Pyrrolo[1,2-a]quinoxalin-4-yl)aniline]
100 ± 2	Nc1ccc(-c2nc3ccccc3n3cccc23)cc1 [Compound 9g, 4-(Pyrrolo[1,2-a]quinoxalin-4-yl)aniline]
2 ± 21	O=[N+]([O-])c1ccc(-c2nc3ccccc3n3cccc23)cc1 [Compound 9f, 4-(4-Nitrophenyl)pyrrolo[1,2-a]quinoxaline]
20 ± 8	O=[N+]([O-])c1cccc(-c2nc3ccccc3n3cccc23)c1 [Compound 9b, 4-(3-Nitrophenyl)pyrrolo[1,2-a]quinoxaline]
8 ± 7	c1ccc2c(c1)nc(-c1ccc(N3CCCC3)cc1)c1cccn12 [Compound 9i, 4-(4-(Pyrrolidin-1-yl)phenyl)pyrrolo[1,2-a]quinoxaline]
70 ± 13	c1cncc(-c2nc3ccccc3n3cccc23)c1 [Compound 11a, 4-(Pyridin-3-yl)pyrrolo[1,2-a]quinoxaline]
63 ± 4	c1ccc2c(c1)nc(-c1ccncc1)c1cccn12 [Compound 11b, 4-(Pyridin-4-yl)pyrrolo[1,2-a]quinoxaline]
61 ± 4	CN(C)c1ccc(-c2nc3ccccc3n3cccc23)cc1 [Compound 9a, N,N-dimethyl-4-(pyrrolo[1,2-a]quinoxalin-4-yl)aniline]

Same assay, conditions: Table 2; read-out: D-Loops IC50

IC50 [µM]	Structure (SMILES)
15.8 ± 3.1	CCNc1ccc(-c2nc3ccccc3n3cccc23)cc1 [Compound 9h, N-ethyl-4-(pyrrolo[1,2-a]quinoxalin-4-yl)aniline]

Same assay, conditions: Table 3

D-Loops Max inhibition effect [%]	Structure (SMILES)
75 ± 7	CCCOc1ccc2c(c1)nc(-c1ccc(N)cc1)c1cccn12 [Compound 15a, 4-(7-Propoxypyrrolo[1,2-a]quinoxalin-4-yl)aniline]
17 ± 7	COc1ccc2c(c1)nc(-c1ccc([N+](=O)[O-])cc1)c1cccn12 [Compound 12b, 7-Methoxy-4-(4-nitrophenyl)pyrrolo[1,2-a]quinoxaline]
19 ± 15	CN(C)c1ccc(-c2nc3cc(F)c(F)cc3n3cccc23)cc1 [Compound 12m, 4-(7,8-Difluoropyrrolo[1,2-a]quinoxalin-4-yl)-N,N-dimethylaniline]
98 ± 5	Nc1ccc(-c2nc3cc(OCCF)ccc3n3cccc23)cc1 [Compound 15b, 4-(7-(2-Fluoroethoxy)pyrrolo[1,2-a]quinoxalin-4-yl)aniline]
100 ± 3	Nc1ccc(-c2nc3cc(O)ccc3n3cccc23)cc1 [Compound 12f, 4-(4-Aminophenyl)pyrrolo[1,2-a]quinoxalin-7-ol]
31 ± 4	CN(C)c1ccc(-c2nc3cc(F)ccc3n3cccc23)cc1 [Compound 12j, 4-(7-Fluoropyrrolo[1,2-a]quinoxalin-4-yl)-N,N-dimethylaniline]
95 ± 6	Nc1ccc(-c2nc3cc(F)ccc3n3cccc23)cc1 [Compound 12i, 4-(7-Fluoropyrrolo[1,2-a]quinoxalin-4-yl)aniline]
59 ± 4	Nc1ccc(-c2nc3cc(F)c(F)cc3n3cccc23)cc1 [Compound 12l, 4-(7,8-Difluoropyrrolo[1,2-a]quinoxalin-4-yl)aniline]
97 ± 8	Oc1ccc(-c2nc3cc(O)ccc3n3cccc23)cc1 [Compound 12d, 4-(4-Hydroxyphenyl)pyrrolo[1,2-a]quinoxalin-7-ol]
13 ± 10	O=[N+]([O-])c1ccc(-c2nc3cc(O)ccc3n3cccc23)cc1 [Compound 12e, 4-(4-Nitrophenyl)pyrrolo[1,2-a]quinoxalin-7-ol]
38 ± 4	CN(C)c1ccc(-c2nc3cc(OC(C)(C)C(N)=O)ccc3n3cccc23)cc1 [Compound 16, 2-((4-(4-(Dimethylamino)phenyl)pyrrolo[1,2-a]quinoxalin-7-yl)oxy)-2-methylpropanamide]

Same assay, conditions: Table 3; read-out: D-Loops IC50

IC50 [µM]	Structure (SMILES)
64.9 ± 31.6	Oc1ccc2c(c1)nc(-c1cccnc1)c1cccn12 [Compound 13b, 4-(Pyridin-3-yl)pyrrolo[1,2-a]quinoxalin-7-ol]

Reference: patent US10973819B2, “Small molecules inhibitors of RAD51” (The University of Chicago, priority 2016, dated 2021)
